How the values were obtained:
[1] = molecular target: His-PspAFL (full-length phage shock protein A) (E. coli) (UniProt P0AFM6); assay: SEC; single proteins alone: 50-μl samples of 30 μM PspAFL or PspA fragments (20 μM PspF1–275), Superose 6, 4 °C, 20 mM Tris–HCl pH 8.0, 50 mM NaCl, 15 mM MgCl2; apparent oligomeric forms from calibration with globular proteins
[2] = molecular target: His-PspA(1–186) (HD1–HD2–HD3) (E. coli) (UniProt P0AFM6); assay: as above

Substance | stoichiometry N [1] [subunits] | stoichiometry N [2] [subunits]
His-PspAFL (full-length phage shock protein A) (from UniProt P0AFM6 1-222) (natural protein) | 90 | 
His-PspA(1–186) (HD1–HD2–HD3) (from UniProt P0AFM6 1-186) (domain or fragment) |  | 2

From PMC3128695
